Source: PubChem BioAssay
This is a sample that favours compounds with a hit; in the whole collection about 0.46% have one here.
HCMV NEC inh: inhibitors of HCMV UL50-UL53 interaction, biochemical, HTRF. normalized percent inhibition. 0.15% of 190,000 active. HCMV UL50-UL53 nuclear egress complex (human cytomegalovirus). inhibition, % (concentration not given with the values). AID 1918969, 2023; in the data active = inhibition above about 27%, passing the limit was not always enough
GIV Gai3 FP: GIV-Galpha-i interaction inhibition; P08753; Galpha-i3/FITC-GIV peptide fluorescence polarization, 90 min; active compounds read low; scaled: aluminum fluoride 0%, vehicle 100%; percent of control (FP), % (no concentration beside the values); 210,000 compounds, 0.42% hits; AID 1224905;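 active means replicate mean at 85% of control or lower, very high polarization wells dropped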;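 further: wells of about 15 µL received 100 nL stock; the first replicate is given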
A number is an active result; - = inactive; . = not tested or not shown.

SMILES	HCMV NEC inh	GIV Gai3 FP
CCNC(=O)CN1C(=O)C(C)(C)c2cc(S(=O)(=O)N3CCCCC3)ccc21	-	-
CC1CCCCN1C(=O)c1cc2ccccc2oc1=O (configuration not stated)	-	-
O[N+]1=CC=CCC1=S.On1ccccc1=S.[Zn]	93	.
CN(C)c1cc(C(=O)O)ccn1	-	-
Cc1ccc(-c2nnc(C3CCN(S(=O)(=O)c4ccc(C(C)(C)C)cc4)CC3)o2)cc1	-	-
Cc1ccc(S(=O)(=O)N(CCC(C)C)c2nc3nc(C)c(Cl)c(C)n3n2)cc1	-	-
COc1cc(C2C(C(=O)c3cc4cccc(OC)c4o3)=C(O)C(=O)N2c2nnc(C)s2)cc(Br)c1O (configuration not stated)	-	27
COc1cccc2cc(C(=O)C3=C(O)C(=O)N(CCCn4ccnc4)C3c3ccc(F)cc3)oc12 (configuration not stated)	-	-
Cc1ccc(N2C(=O)NC(=O)/C(=C/c3cc(Br)c(O)cc3O)C2=O)cc1	-	-71
Cc1ccc(N2C(=O)NC(=O)/C(=C\c3ccc(O)c(Br)c3)C2=O)cc1	-	-
CCOc1ccc2c(c1)-c1c(ssc1=S)C(C)(C)N2C(=O)CSc1nc(C)cc(=O)[nH]1	.	-
Cc1cccc(-n2nc3c(c2NC(=O)c2ccc(S(=O)(=O)N4CCCCC4)cc2)CSC3)c1C	.	-
COc1ccc(-n2nc3c(c2NC(=O)c2ccc(S(=O)(=O)N4CCCCC4)cc2)CSC3)cc1	-	-
Cc1ccccc1-n1nc2c(c1NC(=O)c1ccc(S(=O)(=O)N3CCCCC3)cc1)CSC2	40	-
Cc1ccc(-n2nc3c(c2NC(=O)c2ccc(S(=O)(=O)N4CCCCC4)cc2)CSC3)c(C)c1	-	-
Cc1ccc(-n2nc3c(c2NC(=O)c2ccc(S(=O)(=O)N4CCOCC4)cc2)CSC3)c(C)c1	90	-
COc1ccc(-n2nc3c(c2NC(=O)c2ccc(S(=O)(=O)N4CCCC4)cc2)CSC3)cc1	58	-
CSc1c(C#N)c(N)nc(SCc2ccc(C)cc2)c1C#N	-	-
CCc1ccc(-n2c(=O)c3cccnc3n2CC(=O)Nc2ccc3c(c2)OCO3)cc1	-	-
COc1ccc(-c2noc(CCCCCNC3CCSC3)n2)cc1 (configuration not stated)	-	.
O=c1oc2cc(O)ccc2cc1-c1nc(-c2ccc3ccccc3c2)cs1	.	-29
COc1cccc2cc(-c3nnc(NC4CCCCC4)s3)c(=O)oc12	.	-
O=c1oc2ccc3ccccc3c2cc1-c1nc(-c2cccs2)cs1	.	-
O=c1oc2ccccc2cc1-c1nc(-c2cccs2)cs1	.	11
O=c1oc2cc(O)ccc2cc1-c1nnc(NC2CCCCC2)s1	.	-31
SMILES	HCMV NEC inh	GIV Gai3 FP
Cc1ccc(-c2csc(-c3cc4ccccc4oc3=O)n2)cc1C	.	-
CCSc1nnc(-c2nn(C)c3c2CN(S(=O)(=O)c2ccc(Cl)cc2)CC3)n1CC	.	-
CCCCn1c(=O)c2sccc2n2c(=O)n(CC(=O)NCc3cccc(OC)c3OC)nc12	-	-
COc1cc(C=C2C(=O)NC(=O)NC2=O)ccc1Oc1ccc([N+](=O)[O-])cc1[N+](=O)[O-]	49	-
COc1cc(C=C2C(=O)NC(=O)NC2=O)ccc1OCc1ccccc1[N+](=O)[O-]	-	-
Cc1cccc(NC(=O)c2sc3nc(-c4cc5ccc(O)cc5oc4=O)[nH]c(=O)c3c2C)c1	-	-66
Cc1cc(C)cc(NC(=O)c2sc3nc(-c4cc5ccccc5oc4=O)[nH]c(=O)c3c2C)c1	-	-
COc1ccc(NC(=O)CSc2nc3c(cc2C#N)CCCC3)cc1	.	-
Cc1cc(C)nc(NS(=O)(=O)c2ccc(NC(=O)CSc3nc4c(cc3C#N)CCCCC4)cc2)n1	28	-
Cc1ccc(NC(=O)CSc2ncc3c(n2)-c2ccc(Cl)cc2N(C)S3(=O)=O)cc1F	.	-
CN1c2cc(Cl)ccc2-c2nc(SCC(=O)Nc3cc(F)ccc3F)ncc2S1(=O)=O	78	-
CN1c2cc(Cl)ccc2-c2nc(SCC(=O)Nc3ccc(F)cc3F)ncc2S1(=O)=O	.	-
CN1c2cc(Cl)ccc2-c2nc(SCC(=O)Nc3nccs3)ncc2S1(=O)=O	36	-
CSc1nnc2c(n1)OC(c1ccc([N+](=O)[O-])cc1)Nc1ccccc1-2 (configuration not stated)	.	-
CSc1nnc2c(n1)OC1(Nc3ccccc3-2)C(=O)Nc2ccc([N+](=O)[O-])cc21 (configuration not stated)	34	-
CCN(CC)c1ccc2cc(-c3nc4ccccc4s3)c(=O)oc2c1	-	-
CCC(=O)Oc1ccc2cc(-c3nc4ccccc4n3C)c(=O)oc2c1	-	.
CCN(CC)c1ccc2cc(-c3nc4ccccc4n3C)c(=O)oc2c1	-	-24
CCN(CC)c1ccc2cc(-c3nc(-c4ccc(Cl)cc4Cl)cs3)c(=O)oc2c1	.	-69
S=C(NCCSCc1ccco1)NC1CCCCC1	-	.
CCCc1ccc(S(=O)(=O)Nc2cccc(C(=O)N3CCCC(C(=O)NC4CCCC4)C3)c2)cc1 (configuration not stated)	.	-
C=CCNC(=O)C1CCCN(C(=O)c2cccc(NS(=O)(=O)c3ccc(C(C)C)cc3)c2)C1 (configuration not stated)	.	-65
O=C(CCc1nc(-c2cc3ccccc3[nH]c2=O)no1)Nc1ccccc1F	-	-
CCOc1ccc(NS(=O)(=O)c2ccc3nc(-c4ccccc4)[nH]c3c2)cc1	-	-
CCOc1ccc(-c2nc3ccc(-c4nc5ccc(N6CCN(C)CC6)cc5[nH]4)cc3[nH]2)cc1	75	.
SMILES	HCMV NEC inh	GIV Gai3 FP
CN1c2ccccc2Oc2nnc(Cl)cc21	105	-
CN1c2ccccc2Oc2nnc(N3CCN(Cc4ccccc4)CC3)cc21	-	-
CSc1ncccc1C(=O)NC1(O)C(=O)c2ccccc2C1=O	56	-
CSc1ncccc1C(=O)Nc1ccccc1C	.	-
Cc1nc(C(=O)NC2(O)C(=O)c3ccccc3C2=O)cs1	60	-
O=C(NC1(O)C(=O)c2ccccc2C1=O)c1cnn(-c2ccccc2)c1C(F)(F)F	-	-
O=C(Nc1nc(-c2ccc(F)cc2)cn1/N=C/c1ccc(Cl)cc1Cl)c1ccc(Cl)cc1	.	-
Cc1nnsc1-c1nnc(-c2ccc(C(F)(F)F)cc2)o1	-	-
CCCn1c2c(c(=O)[nH]c1=O)C(=O)C(C)N2 (configuration not stated)	-	.
Cc1ccc(/C=C2/CC(C)C/C(=C\c3ccc(C)o3)C2=O)o1 (configuration not stated)	-	-
Cc1ccc(/C=C2\CC/C(=C\c3ccc(C)o3)C2=O)o1	.	-75
CNC(=O)Nc1ccc2snnc2c1	.	-
O=C(Nc1ccc2snnc2c1)NC1CC1	48	-
COc1ccccc1OCCNC(=O)c1ccc(S(C)(=O)=O)cc1	-	.
c1ccc(-c2nc3nc(-c4ccccc4)c(-c4ccccc4)n3nc2-c2ccccc2)cc1	.	-31
Cc1nc2nc(-c3ccccc3)c(-c3ccccc3)n2nc1C	.	-
Clc1ncccc1N=Cc1cccc(Br)c1	-	.
N#CC1=C(N)C(C#N)(C#N)C(c2ccc(Br)cc2)C2CN(Cc3ccccc3)CC=C12 (configuration not stated)	.	-
CC(C)CC1C2CN(Cc3ccccc3)CC=C2C(C#N)=C(N)C1(C#N)C#N (configuration not stated)	-	-
